From patent publication US20240002398A1, “COMPLEX, AND USE THEREOF” (RIKEN, priority 2020, published 2024)

How the values were obtained:
Experiment in all cases: ATP assay (cytotoxicity assay), MMC-ABC and MMC
[1] = system: A549 (human lung adenocarcinoma cells); conditions: A549, 0.05-50 μM, 48 hours at 37° C., FIG. 11
Method: (§1) (Condition 3) The cells were treated with 1 mM of N-acetyl cysteine (NAc-Cys) in the culture medium, and incubated for 2 hours at 37° C.
(§2) Results are shown in FIG. 10 [MCF10A (normal human mammary cells)] and FIG. 11 [A549 (human lung adenocarcinoma cells) and HeLa S3 (human cervical cancer cells)].

[2] = system: HeLa S3 (human cervical cancer cells); conditions: HeLa S3, 0.05-50 μM, 48 hours at 37° C., FIG. 11
Method: as §1, §2

[3] = system: MCF10A (normal human mammary cells); conditions: 0.05-50 μM, 48 hours at 37° C., FIG. 10
Method: as §1, §2

CO[C@@]12[C@H](COC(N)=O)C3=C(C(=O)C(C)=C(N)C3=O)N1C[C@@H]1N[C@@H]12 [mitomycin C]
cytotoxicity (cell viability) [1]: nonspecifically exhibited cytotoxicity toward normal cells and cancer cells | cytotoxicity (cell viability) [2]: nonspecifically exhibited cytotoxicity toward normal cells and cancer cells | cytotoxicity (cell viability) [3]: nonspecifically exhibited cytotoxicity toward normal cells and cancer cells
